Data from ChEMBL document CHEMBL1139093, “1,3-diaminopropan-2-ol sulfonamides as potent and selective inhibitors of the glycine transporter type 1” (Bioorg Med Chem Lett, 2007).
pIC50: −log10 of the molar value.

Biological target: T1, Sodium- and chloride-dependent glycine transporter 1 (Homo sapiens, UniProt P48067)
T1 sequence (P48067 whole entry): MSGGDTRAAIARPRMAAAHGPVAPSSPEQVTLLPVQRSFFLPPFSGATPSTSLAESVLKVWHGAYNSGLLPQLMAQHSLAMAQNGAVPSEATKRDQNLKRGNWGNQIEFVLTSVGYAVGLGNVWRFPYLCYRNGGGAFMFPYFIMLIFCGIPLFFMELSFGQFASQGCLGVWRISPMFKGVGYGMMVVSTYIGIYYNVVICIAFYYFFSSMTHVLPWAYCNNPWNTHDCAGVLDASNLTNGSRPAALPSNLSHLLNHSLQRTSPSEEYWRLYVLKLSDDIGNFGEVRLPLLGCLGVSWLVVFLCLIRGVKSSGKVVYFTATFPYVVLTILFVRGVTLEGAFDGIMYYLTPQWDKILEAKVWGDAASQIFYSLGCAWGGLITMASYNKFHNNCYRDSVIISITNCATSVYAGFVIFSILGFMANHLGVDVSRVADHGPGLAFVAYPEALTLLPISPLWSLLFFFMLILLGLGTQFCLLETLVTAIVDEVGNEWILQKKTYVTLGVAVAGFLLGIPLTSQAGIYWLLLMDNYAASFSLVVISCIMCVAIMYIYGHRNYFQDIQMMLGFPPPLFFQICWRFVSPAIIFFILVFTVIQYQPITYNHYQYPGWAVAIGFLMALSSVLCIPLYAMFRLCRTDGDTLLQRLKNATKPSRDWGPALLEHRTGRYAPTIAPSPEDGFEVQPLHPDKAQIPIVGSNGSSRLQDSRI

pIC50: 5.10
SMILES: CCC1CCCCN1C[C@@H](O)CNS(=O)(=O)c1cccc2ccccc12 (stereo partly specified)
